Source: patent US6703391B2, “Quinoxalinedione derivatives, their preparation and use” (Neurosearch A/S, priority 1992, dated 2004)

What was measured:
AMPA receptor = assay: Inhibition of [3H] AMPA binding to cortical membranes from rat brain; details: read-out: IC50 (μM) [3H] AMPA, inhibition of [3H] ligand binding
[1] = biological target: [3H] KA binding site (kainate receptor); assay: Inhibition of [3H] KA binding to cortical membranes from rat brain; details: inhibition of [3H] ligand binding
[3H] GLY binding site = [3H] GLY binding site (Rattus norvegicus, UniProt P35439); assay: Inhibition of [3H] GLY binding to cortical membranes from rat brain; details: read-out: IC50 (μM) [3H] GLY, inhibition of [3H] ligand binding

With `CN1Cc2c(Br)cc3c([nH]c(=O)c(=O)n3O)c2C1` the IC50 (AMPA receptor) was 0.94 µM, the “IC50 (μM) [3H] KA” value [1] was 13 µM and the IC50 ([3H] GLY binding site) was 3.3 µM.
